This test has as its system remifentanil self-administration (lever presses) in Sprague-Dawley rats. Briefly: Acquisition of conditioned response remifentanil self-administration behavior in rats.

Structures are written as SMILES.

For the compound `O=C(NCc1ccc(-c2ccn(COP(=O)(O)O)c(=O)c2)cc1)c1c(Cl)cccc1Cl` [compound (2), phosphoric acid mono-(4-{4-[(2,6-dichloro-benzoylamino)-methyl]-phenyl}-2-oxo-2H-pyridin-1-ylmethyl) ester], under “rat model, oral doses 9-72 mg/kg”, the “dose response in preventing the acquisition of conditioned response behavior” value is on record as “positive dose response”. In addition, the “lever presses (remifentanil infusions) vs vehicle” value is, setting by setting: (rats, 36 mg/kg oral, 2 h before each session, days 1-5 of training) “statistically significant decreases”; (rats, 36 mg/kg oral, days 6-10 of training) “but not 6-10”; (rats, 72 mg/kg oral, days 1-5 of training) “statistically significant decreases”; (rats, 72 mg/kg oral, days 6-10 of training) “but not 6-10”. Further, the “cue-induced lever pressing after one-week abstinence” value (rats, re-exposure to light and tone cues only, no drug, data not shown) is reported as “No difference was observed between groups”.

(Values after patent US20200237789A1, “COMBINATION THERAPY FOR PREVENTING ADDICTION” (Amygdala Neurosciences, Inc., priority 2017, published 2020).)
